Experimental findings from ChEMBL document CHEMBL1135432, “Structural classification of protein kinases using 3D molecular interaction field analysis of their ligand binding sites: target family landscapes” (J Med Chem, 2002) are described below.

Protein sequences, listed by entry. Tags and fused reporters are not part of them. Lines headed by an entry give the natural chain unless they say otherwise; changes in a name come on top.
UniProt P11802: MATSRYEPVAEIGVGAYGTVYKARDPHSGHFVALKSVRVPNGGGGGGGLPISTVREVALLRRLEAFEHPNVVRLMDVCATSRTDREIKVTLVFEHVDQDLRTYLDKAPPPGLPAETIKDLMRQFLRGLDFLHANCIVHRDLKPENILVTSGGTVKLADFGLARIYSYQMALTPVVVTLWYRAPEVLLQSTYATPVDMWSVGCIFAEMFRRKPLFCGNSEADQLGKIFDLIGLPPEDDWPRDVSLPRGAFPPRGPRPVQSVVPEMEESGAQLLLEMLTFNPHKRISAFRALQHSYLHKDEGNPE

The target in the test is Cyclin-dependent kinase 4/cyclin D1 (Homo sapiens, UniProt P11802). The test is described as follows: Inhibition of Cyclin D1-cyclin-dependent kinase 4. The format is protein-complex assay.

A word on the IC50: it is the concentration that inhibits the measured activity by half. As for `Cn1cnc2c(NCc3ccccc3)nc(NCCO)nc21` [OLOMOUCINE], the IC50 is above 1000 µM.
